One assay deals with Mu-type opioid receptor (Homo sapiens, UniProt P35372). The assay can be described thus: Binding Assay.
The next assay addresses Nociceptin receptor (Homo sapiens, UniProt P41146). Briefly: Binding Assay. The following applies: pH 7.4.

Sequences of proteins named here, by UniProt entry; tags and fusion partners are left off.
UniProt P35372, whole entry: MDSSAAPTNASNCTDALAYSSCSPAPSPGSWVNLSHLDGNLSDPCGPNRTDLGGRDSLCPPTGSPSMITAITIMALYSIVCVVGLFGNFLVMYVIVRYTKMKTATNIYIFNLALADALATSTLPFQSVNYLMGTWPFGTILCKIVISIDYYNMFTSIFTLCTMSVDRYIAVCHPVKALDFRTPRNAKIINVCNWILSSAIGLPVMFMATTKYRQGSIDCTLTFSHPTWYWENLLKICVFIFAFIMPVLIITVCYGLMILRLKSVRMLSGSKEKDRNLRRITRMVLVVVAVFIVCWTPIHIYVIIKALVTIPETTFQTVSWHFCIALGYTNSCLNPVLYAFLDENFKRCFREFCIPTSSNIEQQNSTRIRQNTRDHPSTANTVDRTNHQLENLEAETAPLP
UniProt P41146, whole entry: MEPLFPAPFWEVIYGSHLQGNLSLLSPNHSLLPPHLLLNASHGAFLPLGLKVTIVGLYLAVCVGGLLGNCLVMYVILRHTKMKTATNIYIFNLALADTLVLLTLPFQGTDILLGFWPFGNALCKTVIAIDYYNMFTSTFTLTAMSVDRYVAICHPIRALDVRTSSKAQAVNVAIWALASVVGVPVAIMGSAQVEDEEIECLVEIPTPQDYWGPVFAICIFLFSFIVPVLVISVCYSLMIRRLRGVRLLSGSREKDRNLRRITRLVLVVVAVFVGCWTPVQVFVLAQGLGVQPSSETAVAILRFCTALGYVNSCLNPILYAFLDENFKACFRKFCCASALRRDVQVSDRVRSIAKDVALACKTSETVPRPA

As to `CNC1(c2ccccc2)CCC2(CC1)OCCc1c2[nH]c2ccccc12` (centres undefined), the results for the Ki on Mu-type opioid receptor and at Nociceptin receptor were 1.2 nM and 1.4 nM, respectively.

For the compound `CNC1(c2ccccc2)CCC2(CC1)OCCc1c2[nH]c2ccc(F)cc12` (centres undefined), the Ki at Mu-type opioid receptor is 6.8 nM; at Nociceptin receptor, 10 nM.

Source of the values: BindingDB's records for US9120797.
